Molecular target: T1, Betaine--homocysteine S-methyltransferase 1 (Homo sapiens, UniProt Q93088)
T1 sequence (Q93088 whole entry): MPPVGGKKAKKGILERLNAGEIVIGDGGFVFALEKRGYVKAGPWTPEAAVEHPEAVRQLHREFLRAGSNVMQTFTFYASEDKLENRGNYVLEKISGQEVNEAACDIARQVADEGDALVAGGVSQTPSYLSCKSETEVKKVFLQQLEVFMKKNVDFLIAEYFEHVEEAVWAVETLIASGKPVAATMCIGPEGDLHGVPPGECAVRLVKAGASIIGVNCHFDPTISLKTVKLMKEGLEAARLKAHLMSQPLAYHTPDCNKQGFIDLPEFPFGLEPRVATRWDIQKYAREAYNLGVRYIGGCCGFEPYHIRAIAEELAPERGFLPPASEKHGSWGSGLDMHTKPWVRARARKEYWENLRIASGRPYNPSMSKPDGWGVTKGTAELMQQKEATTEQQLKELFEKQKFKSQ
Assay: Inhibition of human BHMT
In short: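 Recombinant human BHMT (0.2 µM) mixed with inhibitor at ten concentrations, then 1 mM D,L-homocysteine and 2 mM betaine (¹⁴C-methyl labelled, 0.15 µCi) added in 50 mM K-phosphate pH 7.5 with 10 mM β-mercaptoethanol; 30 min at 37°C. Enzyme-free blanks subtracted. IC50 by nonlinear regression; points in duplicate, three independent assays.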

NC(CCSCCCCC(=O)O)C(=O)O (racemic)
IC50: 87 nM
